How the values were obtained:
His6-TEV-PPARγ-(234-505) = His6-TEV-PPARγ-(234-505) (Homo sapiens, UniProt P37231); experiment: TR-FRET Assay to Measure Co-R Peptide Recruitment to PPARγ; conditions: read-out: TR-FRET i-Ag, Co-R peptide (SMRT-ID2) recruitment, top final concentration 20 μM
UM-UC-9 engineered cells = experiment: Cell proliferation / short-term viability assay, CellTiter-Glo 144 h; conditions: read-out: CTGlo 144 h UMUC9.5, G150

Amino acid sequences for entries named in this document (tags omitted). Residues count along the entry.
UniProt P37231, 234-505 limits assumed: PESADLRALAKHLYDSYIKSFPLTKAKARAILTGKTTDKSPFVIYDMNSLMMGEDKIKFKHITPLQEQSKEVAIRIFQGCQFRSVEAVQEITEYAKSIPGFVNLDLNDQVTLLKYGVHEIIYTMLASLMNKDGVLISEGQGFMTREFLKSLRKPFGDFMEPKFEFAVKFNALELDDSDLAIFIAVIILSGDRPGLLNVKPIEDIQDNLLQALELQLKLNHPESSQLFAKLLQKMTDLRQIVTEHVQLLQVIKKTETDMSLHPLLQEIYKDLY

Row | AC50 (His6-TEV-PPARγ-(234-505)) [nM] | Structure (SMILES) | IC50 (UM-UC-9 engineered cells) [nM]
1 | 6.8 | COc1cc(-c2cc(C(=O)N3CC[C@H](C(=O)NC4CCN(c5cccnc5)C4)CC34CC4)n[nH]2)c(F)cn1 (single isomer, unassigned) [Example 390-A] | 5.6
2 | 5.8 | COc1cc(-c2cc(C(=O)N3CC[C@H](C(=O)NC4CCN(c5cccnc5)C4)CC34CC4)n[nH]2)c(F)cn1 (single isomer, unassigned) [Example 390-B] | 37.6
3 | 66.2 | COc1cc(-c2cc(C(=O)N3CC[C@H](C(=O)NC4CCN(C5COC5)C4)CC34CC4)n[nH]2)c(F)cn1 (single isomer, unassigned) [Example 396-A] | 254
4 | 90.5 | COc1cc(-c2cc(C(=O)N3CC[C@H](C(=O)NC4CCN(C5COC5)C4)CC34CC4)n[nH]2)c(F)cn1 (single isomer, unassigned) [Example 396-B] | 213
5 | 25.1 | COc1cc(-c2cc(C(=O)N3CC[C@H](C(=O)NC4CCC5(CC4)NCC5(F)F)CC34CC4)n[nH]2)c(F)cn1 (single isomer, unassigned) [Example 410-A] | 134
6 | 222 | COc1cc(-c2cc(C(=O)N3CC[C@H](C(=O)NC4CCC5(CC4)NCC5(F)F)CC34CC4)n[nH]2)c(F)cn1 (single isomer, unassigned) [Example 410-B] | 428
7 | 44.1 | COc1cc(-c2cc(C(=O)N3CC[C@H](C(=O)NC4COCC4N4CCOCC4)CC34CC4)n[nH]2)c(F)cn1 (single isomer, unassigned) [Example 414-A] | 115
8 | ≥ 20000 | COc1cc(-c2cc(C(=O)N3CC[C@H](C(=O)NC4COCC4N4CCOCC4)CC34CC4)n[nH]2)c(F)cn1 (single isomer, unassigned) [Example 414-B] | > 10000
9 | 216 | COc1cc(-c2cc(C(=O)N3CC[C@H](C(=O)NC4CCCN(C5COC5)C4)CC34CC4)n[nH]2)c(F)cn1 (single isomer, unassigned) [Example 421-A] | 437
10 | 390 | COc1cc(-c2cc(C(=O)N3CC[C@H](C(=O)NC4CCCN(C5COC5)C4)CC34CC4)n[nH]2)c(F)cn1 (single isomer, unassigned) [Example 421-B] | 359
11 | 111 | COc1cc(-c2cc(C(=O)N3CC[C@H](C(=O)NC4CCN(c5ccnc(C)n5)C4)CC34CC4)n[nH]2)c(F)cn1 (single isomer, unassigned) [Example 431-A] | 595
12 | 17.8 | COc1cc(-c2cc(C(=O)N3CC[C@H](C(=O)NC4CCN(c5ccnc(C)n5)C4)CC34CC4)n[nH]2)c(F)cn1 (single isomer, unassigned) [Example 431-B] | 49.6
13 | 6.9 | COc1cc(-c2cc(C(=O)N3CC[C@H](C(=O)NC4CCC(CC#N)(C(F)(F)F)CC4)CC34CC4)n[nH]2)c(F)cn1 (single isomer, unassigned) [Example 439-B] | 5.6
14 | 800 | COc1cc(-c2cc(C(=O)N3CC[C@H](C(=O)NC4CCC(N5C[C@@H](C)N[C@@H](C)C5)CC4)CC34CC4)n[nH]2)c(F)cn1 (single isomer, unassigned) [Example 460-A] | > 10000
15 | 1980 | COc1cc(-c2cc(C(=O)N3CC[C@H](C(=O)NC4CCC(N5C[C@@H](C)N[C@@H](C)C5)CC4)CC34CC4)n[nH]2)c(F)cn1 (single isomer, unassigned) [Example 460-B] | > 10000

More lines, now with the values behind:

Row | Structure (SMILES) | AC50 (His6-TEV-PPARγ-(234-505)) [nM] | IC50 (UM-UC-9 engineered cells) [nM]
16 | Cc1cc(-c2cc(C(=O)N3CCC(C(=O)NCc4ncc(F)cc4Cl)CC34CC4)n[nH]2)c(F)cn1 (single isomer, unassigned) [Example 385-B] | 5.8 | 10.7
17 | COCCC(F)(F)C1(O)CCC(NC(=O)[C@H]2CCN(C(=O)c3cc(-c4cc(OC)ncc4F)[nH]n3)C3(CC3)C2)CC1 (single isomer, unassigned) [Example 398-A] | 7 | 6.5
18 | COCCC(F)(F)C1(O)CCC(NC(=O)[C@H]2CCN(C(=O)c3cc(-c4cc(OC)ncc4F)[nH]n3)C3(CC3)C2)CC1 (single isomer, unassigned) [Example 398-B] | 1460 | 1530
19 | COc1cc(-c2cc(C(=O)N3CCC(C(=O)N[C@H]4CC[C@@](O)(C(F)(F)F)CC4)CC3C)n[nH]2)c(F)cn1 (single isomer, unassigned) [Example 401-A] | 25.7 | 90.9
20 | COc1cc(-c2cc(C(=O)N3CCC(C(=O)N[C@H]4CC[C@@](O)(C(F)(F)F)CC4)CC3C)n[nH]2)c(F)cn1 (single isomer, unassigned) [Example 401-B] | 33.6 | 93.8
21 | COc1cc(-c2cc(C(=O)N3CCC(C(=O)N[C@H]4CC[C@@](O)(C(F)(F)F)CC4)CC3C)n[nH]2)c(F)cn1 (single isomer, unassigned) [Example 401-C] | 36.4 | 138
22 | COc1cc(-c2cc(C(=O)N3CCC(C(=O)N[C@H]4CC[C@@](O)(C(F)(F)F)CC4)CC3C)n[nH]2)c(F)cn1 (single isomer, unassigned) [Example 401-D] | 5.9 | 6.6
23 | COc1cc(-c2cc(C(=O)N3CCC(C(=O)N[C@H]4CC[C@@](O)(C(F)(F)F)CC4)CC3C)n[nH]2)c(F)cn1 (single isomer, unassigned) [Example 401] | 21.3 | 41.7
24 | CCC1CC(C(=O)N[C@H]2CC[C@@](O)(C(F)(F)F)CC2)CCN1C(=O)c1cc(-c2cc(OC)ncc2F)[nH]n1 (single isomer, unassigned) [Example 403-A] | 955 | 2000
25 | CCC1CC(C(=O)N[C@H]2CC[C@@](O)(C(F)(F)F)CC2)CCN1C(=O)c1cc(-c2cc(OC)ncc2F)[nH]n1 (single isomer, unassigned) [Example 403-B] | 777 | 1630
26 | CCC1CC(C(=O)N[C@H]2CC[C@@](O)(C(F)(F)F)CC2)CCN1C(=O)c1cc(-c2cc(OC)ncc2F)[nH]n1 (single isomer, unassigned) [Example 403-C] | 245 | 1240
27 | CCC1CC(C(=O)N[C@H]2CC[C@@](O)(C(F)(F)F)CC2)CCN1C(=O)c1cc(-c2cc(OC)ncc2F)[nH]n1 (single isomer, unassigned) [Example 403-D] | 27.3 | 66.7
28 | Cc1cc(-c2cc(C(=O)N3CCC(C(=O)NC4CCC5(CC4)OCCC5(F)F)CC34CC4)n[nH]2)c(F)cn1 (single isomer, unassigned) [Example 405-A] | 353 | 731
29 | Cc1cc(-c2cc(C(=O)N3CCC(C(=O)NC4CCC5(CC4)OCCC5(F)F)CC34CC4)n[nH]2)c(F)cn1 (single isomer, unassigned) [Example 405-B] | 503 | 442
30 | Cc1cc(-c2cc(C(=O)N3CCC(C(=O)NC4CCC5(CC4)OCCC5(F)F)CC34CC4)n[nH]2)c(F)cn1 (single isomer, unassigned) [Example 405-C] | 2.8 | 1.6
31 | Cc1cc(-c2cc(C(=O)N3CCC(C(=O)NC4CCC5(CC4)OCCC5(F)F)CC34CC4)n[nH]2)c(F)cn1 (single isomer, unassigned) [Example 405-D] | 48 | 99.5
32 | Cc1cc(-c2cc(C(=O)N3CCC(C(=O)NC4CCC5(CC4)OCCC5(F)F)CC34CC4)n[nH]2)c(F)cn1 (single isomer, unassigned) [Example 405] | 27.9 | 8.3
33 | COc1cc(-c2cc(C(=O)N3CC[C@H](C(=O)NC(C)C45CCC(O)(CC4)CC5)CC34CC4)n[nH]2)c(F)cn1 (single isomer, unassigned) [Example 411-A] | 18.8 | 64.9
34 | COc1cc(-c2cc(C(=O)N3CC[C@H](C(=O)NC4CN(C)CCC4F)CC34CC4)n[nH]2)c(F)cn1 (single isomer, unassigned) [Example 422-A] | 66.1 | 150
35 | COc1cc(-c2cc(C(=O)N3CC[C@H](C(=O)NC4CN(C)CCC4F)CC34CC4)n[nH]2)c(F)cn1 (single isomer, unassigned) [Example 422-B] | 38 | 165
36 | COc1cc(-c2cc(C(=O)N3CC[C@H](C(=O)NC4CN(C)CCC4F)CC34CC4)n[nH]2)c(F)cn1 (single isomer, unassigned) [Example 422-C] | 246 | 440
37 | COc1cc(-c2cc(C(=O)N3CC[C@H](C(=O)NC4CN(C)CCC4F)CC34CC4)n[nH]2)c(F)cn1 (single isomer, unassigned) [Example 422-D] | 128 | 415
38 | COc1cc(-c2cc(C(=O)N3CC[C@H](C(=O)NC4CCC(C)N(C)C4)CC34CC4)n[nH]2)c(F)cn1 (single isomer, unassigned) [Example 423-A] | 5000 | 5420
39 | COc1cc(-c2cc(C(=O)N3CC[C@H](C(=O)NC4CCC(C)N(C)C4)CC34CC4)n[nH]2)c(F)cn1 (single isomer, unassigned) [Example 423-B] | 124 | 174
40 | COc1cc(-c2cc(C(=O)N3CC[C@H](C(=O)NC4CCC(C)N(C)C4)CC34CC4)n[nH]2)c(F)cn1 (single isomer, unassigned) [Example 423-C] | 3040 | 4180
41 | COc1cc(-c2cc(C(=O)N3CC[C@H](C(=O)NC4CN(CC5(C(F)(F)F)CC5)CC4(F)F)CC34CC4)n[nH]2)c(F)cn1 (single isomer, unassigned) [Example 435-A] | 9.2 | 59.5
42 | COc1cc(-c2cc(C(=O)N3CC[C@H](C(=O)NC4CN(CC5(C(F)(F)F)CC5)CC4(F)F)CC34CC4)n[nH]2)c(F)cn1 (single isomer, unassigned) [Example 435-B] | 7.1 | 3.9
43 | COc1cc(-c2cc(C(=O)N3CC[C@H](C(=O)NC4CCC(CC#N)(C(F)(F)F)CC4)CC34CC4)n[nH]2)c(F)cn1 (single isomer, unassigned) [Example 439-A] | 46.6 | 61.8

From patent publication US12606541B2, “PPARg modulators and methods of use” (Eisai R&D Management Co., Ltd., priority 2020, dated 2026)
